Test results as given in US11472877 (Alector, dated 2022).

Sequences of proteins named here, by UniProt entry; tags and fusion partners are left off. A line that says so, or that is headed by a name, gives the form on record, which may keep a tag or linker. Residues count along the entry.
UniProt Q9NP99, 21-234: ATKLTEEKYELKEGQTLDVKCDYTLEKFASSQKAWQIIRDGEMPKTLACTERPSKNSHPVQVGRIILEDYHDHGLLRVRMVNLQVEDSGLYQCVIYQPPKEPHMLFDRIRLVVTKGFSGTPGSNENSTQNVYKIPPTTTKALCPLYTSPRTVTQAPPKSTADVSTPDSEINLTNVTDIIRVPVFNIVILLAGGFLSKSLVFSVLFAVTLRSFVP
UniProt Q9NP99, 21-205 limits assumed, form in doubt: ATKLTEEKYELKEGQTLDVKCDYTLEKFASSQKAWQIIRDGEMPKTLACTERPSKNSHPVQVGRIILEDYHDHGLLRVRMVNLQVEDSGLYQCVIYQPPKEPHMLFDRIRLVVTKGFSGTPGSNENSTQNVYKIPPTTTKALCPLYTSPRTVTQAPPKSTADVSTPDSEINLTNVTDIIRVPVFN

T1: human TREM2 on BWZ cells (human, UniProt Q9NZC2 19-230)
T1 construct: whole, on cells; not tied to the cell line; also called BWZ Human TREM2
T1 sequence (looked up): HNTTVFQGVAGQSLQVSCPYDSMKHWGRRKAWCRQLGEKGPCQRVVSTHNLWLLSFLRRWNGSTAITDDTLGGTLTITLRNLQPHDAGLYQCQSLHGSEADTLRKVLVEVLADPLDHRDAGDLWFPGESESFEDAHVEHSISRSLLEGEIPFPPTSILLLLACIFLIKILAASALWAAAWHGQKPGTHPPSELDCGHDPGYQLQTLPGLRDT

T2: mouse TREM2 on BWZ cells (mouse, UniProt Q99NH8 19-227)
T2 construct: whole, on cells; also called BWZ Mouse TREM2
T2 sequence (looked up): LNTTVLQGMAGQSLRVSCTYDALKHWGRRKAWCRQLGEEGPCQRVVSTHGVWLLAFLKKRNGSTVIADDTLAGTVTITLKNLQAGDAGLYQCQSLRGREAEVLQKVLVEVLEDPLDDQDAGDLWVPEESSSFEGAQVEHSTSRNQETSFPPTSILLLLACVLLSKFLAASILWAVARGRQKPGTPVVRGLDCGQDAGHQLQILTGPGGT

T3: mouse TREM1 on CHO cells (mouse, UniProt Q9JKE2 21-230)
T3 construct: also called CHO-mT1
T3 sequence: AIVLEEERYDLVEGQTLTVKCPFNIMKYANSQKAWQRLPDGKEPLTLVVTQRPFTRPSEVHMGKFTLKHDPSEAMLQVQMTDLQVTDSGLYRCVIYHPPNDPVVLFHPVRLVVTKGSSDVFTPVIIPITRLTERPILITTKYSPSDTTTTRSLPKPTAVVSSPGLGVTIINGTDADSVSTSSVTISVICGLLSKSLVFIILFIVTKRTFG


Experiments:
human TREM2 on BWZ cells = target: T1, human TREM2 on BWZ cells; test: FACS, BWZ human TREM2
human TREM1 on cells [1] = target: T4, human TREM1 on cells (human, UniProt Q9NP99 21-234); test: FACS, CHO human TREM1
T4 construct: Some reporter cells carry a human TREM1/CD3 zeta fusion instead; also called CHO-huT1; CHO-hT1

mouse TREM2 on BWZ cells = target: T2, mouse TREM2 on BWZ cells; test: FACS, BWZ mouse TREM2
human TREM1 = human TREM1 (human, UniProt Q9NP99 21-205, limits assumed); test: IgG, monovalent; method and antigen form not stated
human TREM1 on cells [2] = target: T4, human TREM1 on cells; test: FACS, human neutrophils
mouse TREM1 on CHO cells = target: T3, mouse TREM1 on CHO cells; test: FACS, CHO mouse TREM1
human TREM1 on cells [3] = target: T4, human TREM1 on cells; test: FACS ligand blocking on CHO-huTREM1, 10 ug/mL IgG; competitor hPGLYRP1/PGN-BS

FOB Fold Over Background (human TREM2 on BWZ cells) | FOB Fold Over Background (human TREM1 on cells [1]) | FOB Fold Over Background (mouse TREM2 on BWZ cells) | Kd (human TREM1) | koff (human TREM1) | kon (human TREM1) | FOB Fold Over Background (human TREM1 on cells [2]) | FOB Fold Over Background (mouse TREM1 on CHO cells) | % ligand binding blocked (human TREM1 on cells [3]) | Binder
1.3 fold | 352 fold | 1.5 fold | 179 nM | 0.0168 s⁻¹ | 93600 M⁻¹ s⁻¹ | 4.4 fold | 0.4 fold | – | T1-1 (antibody, IgG1, V domains shown, huIgG1; also called TI-1; ADI-19067) VH: QVQLVQSGAEVKKPGSSVKVSCKASGGTFSSYAISWVRQAPGQGLEWMGGIIPIFGTANYAQKFQGRVTITADESTSTAYMELSSLRSEDTAVYYCARGQGSDHYYYGMDVWGQGTTVTVSS VL: not shown
0.7 fold | 509 fold | 1.3 fold | 111 nM | 0.0264 s⁻¹ | 239000 M⁻¹ s⁻¹ | 2.2 fold | 0.4 fold | – | T1-4 (antibody, IgG1, V domains shown, huIgG1; also called TI-4; ADI-19070) VH: QVQLVQSGAEVKKPGSSVKVSCKASGGTFSSYAISWVRQAPGQGLEWMGGIIPIFGTANYAQKFQGRVTITADESTSTAYMELSSLRSEDTAVYYCARHYYYGYAYFDLWGRGTLVTVSS VL: EIVMTQSPATLSVSPGERATLSCRASQSVSSNLAWYQQKPGQAPRLLIYGASTRATGIPARFSGSGSGTEFTLTISSLQSEDFAVYYCQQFNNHPITFGGGTKVEIK
– | 504 fold | 0.9 fold | 9.46 nM | 0.000848 s⁻¹ | 89600 M⁻¹ s⁻¹ | 4.9 fold | 16.3 fold | ≥ 50% | T1-49 (antibody, IgG1, V domains shown, huIgG1; also called TI-49; ADI-19122) VH: QVQLVQSGAEVKKPGASVKVSCKASGYTFTSYYMHWVRQAPGQGLEWMGIINPSGGSTSYAQKFQGRVTMTRDTSTSTVYMELSSLRSEDTAVYYCAREAGSWLISTAFDIWGQGTMVTVSS VL: not shown
0.9 fold | 431 fold | 1.2 fold | 28 nM | 0.00384 s⁻¹ | 137000 M⁻¹ s⁻¹ | 3.1 fold | 8 fold | ≥ 50% | T1-44 (antibody, IgG1, V domains shown, huIgG1; also called TI-44; ADI-19119) VH: QVQLVQSGAEVKKPGASVKVSCKASGYTFTSYYMHWVRQAPGQGLEWMGVINPSGGSTSYAQKFQGRVTMTRDTSTSTVYMELSSLRSEDTAVYYCAREGSGYDESMDVWGQGTTVTVSS VL: not shown
0.9 fold | 491 fold | 1 fold | 13.7 nM | 0.00113 s⁻¹ | 82300 M⁻¹ s⁻¹ | 5.9 fold | – | ≥ 50% | T1-46 (antibody, IgG1, V domains shown, huIgG1; also called TI-46; ADI-19124) VH: QVQLVQSGAEVKKPGASVKVSCKASGYTFTSYYMHWVRQAPGQGLEWMGVINPSGGSTSYAQKFQGRVTMTRDTSTSTVYMELSSLRSEDTAVYYCAREGSGYDESMDVWGQGTTVTVSS VL: not shown
– | – | – | 46.3 nM | 0.0146 s⁻¹ | 314000 M⁻¹ s⁻¹ | – | – | ≥ 85% | T1-42 (antibody, IgG1, V domains shown, huIgG1; also called TI-42; ADI-19116) VH: QVQLVESGGGVVQPGRSLRLSCAASGFTFSSYGMHWVRQAPGKGLEWVAVIWYDGSNKGYADSVKGRFTISRDNSKNTLYLQMNSLRAEDTAVYYCARELMVTSGGWLYGMDVWGQGTTVTVSS VL: EIVMTQSPATLSVSPGERATLSCRASQSVSSNLAWYQQKPGQAPRLLIYGASTRATGIPARFSGSGSGTEFTLTISSLQSEDFAVYYCQQYNVHPPRTFGGGTKVEIK
1.1 fold | 502 fold | 1.2 fold | 29.9 nM | 0.00661 s⁻¹ | 221000 M⁻¹ s⁻¹ | 8.7 fold | – | ≥ 50% | T1-63 (antibody, IgG1, V domains shown, huIgG1; also called TI-63; ADI-19139) VH: QVQLQESGPGLVKPSETLSLTCAVSGYSISSGYYWGWIRQPPGKGLEWIGSIYHSGNTYYNPSLKSRVTISVDTSKNQFSLKLSSVTAADTAVYYCARELYAYSSPMFYGMDVWGRGTTVTVSS VL: DIQMTQSPSSLSASVGDRVTITCRASQSISRYLNWYQQKPGKAPKLLIYAASSLQSGVPSRFSGSGSGTDFTLTISSLQPEDFATYYCQQLYHAPPITFGGGTKVEIK
1.1 fold | 420 fold | 1.1 fold | 88.6 nM | 0.00571 s⁻¹ | 64400 M⁻¹ s⁻¹ | 2 fold | 3.3 fold | – | T1-55 (antibody, IgG1, V domains shown, huIgG1; also called TI-55; ADI-19130) VH: QVQLVQSGAEVKKPGASVKVSCKASGYTFTSYYMHWVRQAPGQGLEWMGVINPSGGSTSYAQKFQGRVTMTRDTSTSTVYMELSSLRSEDTAVYYCARGADYYAGFDYWGQGTLVTVSS VL: not shown
1.1 fold | 452 fold | 1.1 fold | 167 nM | 0.0206 s⁻¹ | 124000 M⁻¹ s⁻¹ | 2.6 fold | 0.8 fold | – | T1-7 (antibody, IgG1, V domains shown, huIgG1; also called TI-7; ADI-19073) VH: QVQLVQSGAEVKKPGASVKVSCKASGYTFTSYYMHWVRQAPGQGLEWMGIINPSGGSTSYAQKFQGRVTMTRDTSTSTVYMELSSLRSEDTAVYYCARGLIYGDAFDYWGQGTLVTVSS VL: not shown
0.9 fold | 500 fold | 1.1 fold | – | – | – | 2.4 fold | 4.1 fold | ≥ 85% | T1-51 (antibody, IgG1, V domains shown, huIgG1; also called TI-51; ADI-19126) VH: QVQLVQSGAEVKKPGSSVKVSCKASGGTFSSYAISWVRQAPGQGLEWMGSIIPIFGTANYAQKFQGRVTITADESTSTAYMELSSLRSEDTAVYYCARSGGYSSSWYGTGYDYWGQGTLVTVSS VL: DIQMTQSPSTLSASVGDRVTITCRASQSISSWLAWYQQKPGKAPKLLIYKASSLESGVPSRFSGSGSGTEFTLTISSLQPDDFATYYCQQFQSYPFTFGGGTKVEIK
1 fold | 445 fold | 1.6 fold | 16.3 nM | 0.00558 s⁻¹ | 343000 M⁻¹ s⁻¹ | 2.6 fold | 0.6 fold | ≥ 85% | T1-41 (antibody, IgG1, V domains shown, huIgG1; also called TI-41; ADI-19115) VH: not shown VL: DIQLTQSPSSVSASVGDRVTITCRASQDISSWLAWYQQKPGKAPKLLIYAASSLQSGVPSRFSGSGSGTDFTLTISSLQPEDFATYYCQQAVIHPPYTFGGGTKVEIK
0.7 fold | 435 fold | 1.1 fold | 15.6 nM | 0.00188 s⁻¹ | 121000 M⁻¹ s⁻¹ | 2.3 fold | 37 fold | – | T1-35 (antibody, IgG1, V domains shown, huIgG1; also called TI-35; ADI-19109) VH: QVQLVESGGGVVQPGRSLRLSCAASGFTFSSYGMHWVRQAPGKGLEWVAVISYDGSNKYYADSVKGRFTISRDNSKNTLYLQMNSLRAEDTAVYYCARPDYYSSRGVFDIWGQGTMVTVSS VL: not shown
0.8 fold | 453 fold | 1.1 fold | 22 nM | 0.00233 s⁻¹ | 106000 M⁻¹ s⁻¹ | 2.8 fold | 59.1 fold | – | T1-36 (antibody, IgG1, V domains shown, huIgG1; also called TI-36; ADI-19110) VH: QVQLVESGGGVVQPGRSLRLSCAASGFTFSSYGMHWVRQAPGKGLEWVAVISYDGSNKYYADSVKGRFTISRDNSKNTLYLQMNSLRAEDTAVYYCARPDYYSSRGVFDIWGQGTMVTVSS VL: not shown
0.9 fold | 433 fold | 1.1 fold | 36.8 nM | 0.00723 s⁻¹ | 196000 M⁻¹ s⁻¹ | 5.7 fold | – | ≥ 50% | T1-61 (antibody, IgG1, V domains shown, huIgG1; also called TI-61; ADI-19137) VH: QVQLQESGPGLVKPSETLSLTCAVSGYSISSGYYWGWIRQPPGKGLEWIGSIYHSGSTYYNPSLKSRVTISVDTSKNQFSLKLSSVTAADTAVYYCARHDDYLSSFDPWGQGTLVTVSS VL: not shown
0.7 fold | 458 fold | 1.1 fold | 21.9 nM | 0.00183 s⁻¹ | 83700 M⁻¹ s⁻¹ | 3.5 fold | 51 fold | ≥ 50% | T1-40 (antibody, IgG1, V domains shown, huIgG1; also called TI-40; ADI-19114) VH: EVQLVESGGGLVKPGGSLRLSCAASGFTFSSYSMNWVRQAPGKGLEWVSSISSSSSYIYYADSVKGRFTISRDNAKNSLYLQMNSLRAEDTAVYYCARTRIDDSFDIWGQGTMVTVSS VL: not shown
